# AlphaSeq binding of Ab-14 heavy chain variants to a spike HR2 peptide

Data: MIT Lincoln Laboratory AlphaSeq set, Li et al. 2023, doi:10.1038/s41467-023-39022-2, as distributed in FLAb.

The target is the same throughout: PDVDLGDISGINAS, from the HR2 region of SARS-CoV-2 spike.

Each scFv is VH, a 15-residue (Gly4Ser)3 linker, VL, as in the parent Ab-14, and differs from it in the CDRs of the heavy chain only.
VH: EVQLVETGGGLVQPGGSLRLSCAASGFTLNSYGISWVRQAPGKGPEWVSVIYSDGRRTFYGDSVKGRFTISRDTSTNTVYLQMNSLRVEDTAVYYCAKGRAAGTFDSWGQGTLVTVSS
VL: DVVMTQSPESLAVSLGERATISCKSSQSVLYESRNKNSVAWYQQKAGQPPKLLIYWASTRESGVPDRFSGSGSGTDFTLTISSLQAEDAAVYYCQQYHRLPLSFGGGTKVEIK

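The starting antibody came from a phage panning campaign against this peptide. Designed CDR sequences, proposed from the first random library and measured here. Their group label is 14H_GP_HC (GP: Gaussian process model; HC: hill climbing; a sequence that several methods proposed may carry one label only). Affinity was read by AlphaSeq, a pooled yeast mating assay with surface-displayed partners. Pairs that bind mate more often; barcode pairs of the diploids are counted by sequencing. Each replicate has its own calibration line, from reference interactions of the BCL2 family. The assay was run in six technical replicates.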

Changes read parent residue, position, new residue, counted from the first residue of the VH shown. The read-out is the apparent dissociation constant on a log10 scale (nM): the lower, the stronger. "nd" means that the variant was in the library but no mating with the target was seen in that replicate; the authors take this as a sign of poor binding, and no number exists. The range of this assay differs from that of the first round, and the authors advise against merging the two. The authors' rule: three or more of the six replicates give a measured affinity, fewer mean a poor binder. Three control strains display no target. For all heavy chain designs, 1% of the pairings with them gave a signal, with a median of 2.08 and one signal in twenty below 0.84, so weak values seen in few replicates may be background. For each scFv, signals with the empty controls are counted beside the result, with their mean in brackets. The parent sequence was in this pool as ten entries: three were never detected, three once, and four in most replicates, with averages from 0.34 to 2.37.

changes,"log10 Kd, replicates",signal with controls
S31E/F105L/S107T,nd / nd / nd / nd / nd / nd,0/18
T28N/S31E/G61T/S107E,1.29 / 0.28 / 1.81 / 1.29 / nd / 0.51,0/18
R56K/G61D/S63N/R100Q/A101L,1.68 / 1.09 / 1.62 / 1.47 / 1.45 / 1.28,0/18
S53A/R100K/D106K/S107K,nd / nd / nd / nd / nd / nd,1/18 (1.45)
S31E/A101N/D106M/S107T,nd / nd / nd / nd / 2.28 / nd,0/18
S31E/G61A/A101I,nd / nd / nd / nd / nd / nd,0/18
T28D/S31E/D106K,1.99 / 3.74 / 2.29 / 2.71 / 2.49 / 3.61,0/18
S31E/D106G/S107K,nd / nd / nd / nd / nd / nd,0/18
T28S/S31W/G61I/A101E,nd / nd / nd / nd / nd / nd,0/18
G61K/R100T/A101L,nd / nd / nd / nd / nd / nd,0/18
S31L/G61D/R100Q/A101E,1.98 / 1.39 / 1.27 / 2.86 / 0.95 / 0.90,0/18
G61T/R100E/A101V,0.80 / 0.88 / 0.04 / 0.55 / 0.47 / 0.42,0/18
R56K/G61I/D106W,nd / nd / nd / nd / nd / nd,0/18
T28E/S31E/G61T/R100E/A101Q,-0.21 / 0.41 / -0.10 / 0.40 / 0.21 / 0.29,0/18
T28S/G61V/R100M/A101L,1.00 / 1.92 / 1.65 / 0.39 / 1.61 / 1.22,1/18 (2.49)
N30E/S31K,nd / 0.56 / 1.10 / 0.01 / 0.18 / -0.12,0/18
S31E/A101V/S107A,1.23 / -0.41 / -0.10 / 0.14 / 0.02 / 1.08,0/18
T28D/G61Q/G103V,nd / nd / nd / nd / nd / nd,0/18
S31E/R56H/G61S/A101T,0.79 / nd / 0.44 / -0.07 / 0.40 / 1.51,0/18
S31E/G61A/A101E/S107V,-0.37 / -0.29 / -0.51 / -0.69 / -0.44 / -0.46,0/18
T28A/G61D/A101L,0.99 / 0.98 / 0.77 / 0.93 / 0.65 / 0.91,3/18 (2.58)
T28S/S31E/G61M/A101N,0.27 / -0.29 / -0.33 / 0.64 / -0.34 / 0.10,0/18
G26S/S53A/R100E/D106K,nd / 2.11 / nd / nd / nd / nd,0/18
T28I/R100Q/A101L,nd / 1.13 / nd / nd / nd / nd,0/18
G61T/R100M/A101F,nd / nd / nd / nd / nd / 2.02,1/18 (1.06)
N30E/S53A/S63P,nd / nd / nd / nd / nd / nd,0/18
T28S/S31G/G61S/R100S,1.27 / 0.40 / 1.03 / 0.68 / 0.64 / 1.32,1/18 (2.02)
T28D/G103W/D106V,nd / nd / nd / nd / nd / nd,0/18
T28S/S31E/G61C/R100P/S107M,nd / nd / nd / nd / nd / nd,0/18
S31E/A101T/D106Y,nd / nd / nd / nd / nd / nd,1/18 (1.25)
S31D/G61I/A101E/D106I,nd / nd / nd / nd / nd / nd,0/18
T28D/S53A/D106K,nd / nd / nd / nd / nd / nd,0/18
F27N/S31D/F59M/G61I,nd / 1.50 / nd / nd / nd / nd,0/18
G61V/R100Q/A101V/T104K,1.67 / 2.04 / 1.90 / 1.97 / 1.01 / 2.32,0/18
T28D/S31E/G61T/A101F,0.73 / 1.14 / 0.70 / 2.34 / 0.74 / 0.50,0/18